Laboratory results from patent publication US20260207704A1, “STAPLED PEPTIDES AND METHODS THEREOF” (priority 2022, published 2026).

Protein sequences, listed by entry. Tags and fused reporters are not part of them.
UniProt P35222, whole entry: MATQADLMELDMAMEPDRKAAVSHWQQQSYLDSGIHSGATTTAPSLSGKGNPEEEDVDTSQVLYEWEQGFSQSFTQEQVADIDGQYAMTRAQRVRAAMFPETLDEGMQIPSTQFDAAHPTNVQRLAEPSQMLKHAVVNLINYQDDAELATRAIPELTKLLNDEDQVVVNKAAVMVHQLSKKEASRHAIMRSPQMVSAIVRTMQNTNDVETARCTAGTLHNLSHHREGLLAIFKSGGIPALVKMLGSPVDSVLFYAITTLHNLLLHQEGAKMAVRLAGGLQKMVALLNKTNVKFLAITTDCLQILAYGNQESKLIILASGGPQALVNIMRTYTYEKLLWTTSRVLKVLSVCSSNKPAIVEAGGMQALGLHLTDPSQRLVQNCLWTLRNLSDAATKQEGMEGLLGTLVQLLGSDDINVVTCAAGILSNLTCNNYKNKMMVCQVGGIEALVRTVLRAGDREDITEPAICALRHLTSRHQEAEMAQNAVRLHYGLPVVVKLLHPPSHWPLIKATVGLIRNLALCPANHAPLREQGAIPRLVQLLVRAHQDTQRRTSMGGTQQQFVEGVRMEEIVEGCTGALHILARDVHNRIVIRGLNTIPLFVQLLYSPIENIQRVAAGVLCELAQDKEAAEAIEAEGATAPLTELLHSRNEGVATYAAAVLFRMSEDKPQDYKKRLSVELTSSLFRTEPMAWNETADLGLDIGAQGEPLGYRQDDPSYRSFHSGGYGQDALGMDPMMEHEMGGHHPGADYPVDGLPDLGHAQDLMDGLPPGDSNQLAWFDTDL

Tests used:
beta-catenin = beta-catenin (Homo sapiens, UniProt P35222); experiment: fluorescence polarization binding to beta-catenin; conditions: beta-Catenin FP IC50 (nM)
beta-catenin/TCF4 = molecular target: T1, beta-catenin/TCF4 (Homo sapiens, UniProt P35222); experiment: Nano-BRET target engagement assay (HEK293 cells); type: cell-based
T1 construct: expressed in transfected cells; host or cells: HEK293 cells

| IC50 (beta-catenin) | IC50 (beta-catenin/TCF4) | SMILES |
| --- | --- | --- |
| < 50 nM | 3000 to 10000 nM | CC(=O)N1CCC[C@]12CC=CCCCC1(CCCC=CCCCOC(=O)N3CC[C@@]4(C3)NC(=O)[C@H](CCCNC(=O)CC[C@@H](C(N)=O)NC(=O)[C@H](Cc3csc5ccccc35)NC(=O)[C@H](Cc3ccsc3)NC4=O)NC(=O)[C@H](Cc3ccccc3)NC(=O)[C@H](C)NC(=O)[C@H](C)NC(=O)[C@H](Cc3cccc(C(=O)O)c3)NC(=O)[C@H](CC(=O)O)NC1=O)NC(=O)[C@H](CC(C)(C)C)NC(=O)[C@H](CC(=O)O)NC2=O (relative stereo) [I-37, Ac-PL3-Asp-Npg-B5-Asp-3COOHF-Ala-Ala-Phe-Orn*3-PyrS2-3Thi-BztA-GlnR*3-NH2] |
| < 50 nM | 3000 to 10000 nM | CC(=O)N1CCC[C@]12CC=CCCCC1(CCCC=CCCCOC(=O)N3CC[C@@]4(C3)NC(=O)[C@H](CCCCNC(=O)CC[C@@H](C(=O)N[C@@H](C)C(N)=O)NC(=O)[C@H](Cc3csc5ccccc35)NC(=O)[C@H](CC3CCCCC3)NC4=O)NC(=O)[C@H](Cc3ccccc3)NC(=O)[C@H](C)NC(=O)C(C)(C)NC(=O)[C@H](Cc3cccc(C(=O)O)c3)NC(=O)[C@H](CC(=O)O)NC1=O)NC(=O)[C@H](CC(C)(C)C)NC(=O)[C@H](CC(=O)O)NC2=O (relative stereo) [I-285, Ac-PL3-Asp-Npg-B5-Asp-3COOHF-Aib-Ala-Phe-Lys*3-PyrS2-ChA-BztA-GlnR*3-Ala-NH2] |
| < 50 nM | 1500 to 3000 nM | CC(=O)N1CCC[C@]12CC=CCCCC1(CCCC=CCCCOC(=O)N3CC[C@@]4(C3)NC(=O)[C@H](CCCCNC(=O)CC[C@@H](C(=O)N[C@@H](C)C(N)=O)NC(=O)[C@H](Cc3csc5ccccc35)NC(=O)[C@H](Cc3ccccc3C(F)(F)F)NC4=O)NC(=O)[C@H](Cc3ccccc3)NC(=O)[C@H](C)NC(=O)C(C)(C)NC(=O)[C@H](Cc3ccc(C(F)(F)F)c(C(=O)O)c3)NC(=O)[C@H](CC(=O)O)NC1=O)NC(=O)[C@H](CC(C)(C)C)NC(=O)[C@H](CC(=O)O)NC2=O (relative stereo) [I-207, Ac-PL3-Asp-Npg-B5-Asp-4F3Me3COOHF-Aib-Ala-Phe-Lys*3-PyrS2-2F3MeF-BztA-GlnR*3-Ala-NH2] |
| < 50 nM | 3000 to 10000 nM | CC(=O)N1CCC[C@]12CC=CCCCC1(CCCC=CCCCOC(=O)N3CC[C@@]4(C3)NC(=O)[C@H](CCC(=O)NCCC[C@@H](C(N)=O)NC(=O)[C@H](Cc3csc5ccccc35)NC(=O)[C@H](Cc3ccsc3)NC4=O)NC(=O)[C@H](Cc3ccccc3)NC(=O)[C@H](C)NC(=O)[C@H](C)NC(=O)[C@H](Cc3cccc(C(=O)O)c3)NC(=O)[C@H](CC(=O)O)NC1=O)NC(=O)[C@H](CC(C)(C)C)NC(=O)[C@H](CC(=O)O)NC2=O (relative stereo) [I-38, Ac-PL3-Asp-Npg-B5-Asp-3COOHF-Ala-Ala-Phe-GlnR*3-PyrS2-3Thi-BztA-Orn*3-NH2] |
| < 50 nM | 1500 to 3000 nM | COc1ccccc1C[C@@H]1NC(=O)[C@]23CCN(C2)C(=O)OCCCC=CCCCC2(CCCC=CC[C@]4(CCCN4C(C)=O)C(=O)N[C@@H](CC(=O)O)C(=O)N[C@@H](CC(C)(C)C)C(=O)N2)C(=O)N[C@@H](CC(=O)O)C(=O)N[C@@H](Cc2cccc(C(=O)O)c2)C(=O)NC(C)(C)C(=O)N[C@@H](C)C(=O)N[C@@H](Cc2ccccc2)C(=O)N[C@@H](CCCCNC(=O)CC[C@@H](C(=O)N[C@@H](C)C(N)=O)NC(=O)[C@H](Cc2csc4ccccc24)NC1=O)C(=O)N3 (relative stereo) [I-293, Ac-PL3-Asp-Npg-B5-Asp-3COOHF-Aib-Ala-Phe-Lys*3-PyrS2-20MeF-BztA-GlnR*3-Ala-NH2] |
| < 50 nM | 3000 to 10000 nM | CC(=O)N1CCC[C@]12CC=CCCCC1(CCCC=CCCCOC(=O)N3CC[C@@]4(C3)NC(=O)[C@H](CC(C)C)NC(=O)[C@H](Cc3ccccc3)NC(=O)[C@H](C)NC(=O)[C@H](CCCCNC(=O)CCC(=O)NCCCC[C@@H](C(N)=O)NC(=O)[C@H](Cc3csc5ccccc35)NC(=O)[C@H](Cc3ccccc3Cl)NC4=O)NC(=O)[C@H](Cc3cccc(C(=O)O)c3)NC(=O)[C@H](CC(=O)O)NC1=O)NC(=O)[C@H](CC(C)(C)C)NC(=O)[C@H](CC(=O)O)NC2=O (stereo partly drawn) [I-51, Ac-PL3-Asp-Npg-B5-Asp-3COOHF-[succinate]-Lys-Ala-Phe-Leu-PyrS2-2ClF-BztA-Lys-NH2] |

More lines, now with the values behind:

| SMILES | IC50 (beta-catenin) | IC50 (beta-catenin/TCF4) |
| --- | --- | --- |
| CC(=O)N1CCC[C@]12CCCCCCC13CCCCCCCCOC(=O)N4CC[C@@]5(C4)NC(=O)[C@H](CCCCNC(=O)CC[C@@H](C(=O)N[C@@H](C)C(N)=O)NC(=O)[C@H](Cc4csc6ccccc46)NC(=O)[C@H](Cc4ccsc4)NC5=O)NC(=O)[C@H](Cc4ccccc4)NC(=O)[C@H](C)NC(=O)[C@H](CCCCNC(=O)CC[C@H](NC(=O)[C@H](CC(=O)O)NC2=O)C(=O)N1)NC(=O)[C@H](Cc1cccc(C(=O)O)c1)NC(=O)[C@H](CC(=O)O)NC3=O (relative stereo) [I-78, Ac-PL3-Asp-GlnR**3-B5-Asp-3COOHF-Lys**3-Ala-Phe-Lys*3-PyrS2-3Thi-BztA-GlnR*3-Ala-NH2] | < 50 nM | > 10000 nM |
| CC(=O)N1CCC[C@]12CC=CCCCC1(CCCC=CCCCOC(=O)N3CC[C@@]4(C3)NC(=O)[C@H](CCCCNC(=O)CC[C@@H](C(=O)N[C@@H](C)C(N)=O)NC(=O)[C@H](Cc3csc5ccccc35)NC(=O)[C@H](Cc3ccncc3)NC4=O)NC(=O)[C@H](Cc3ccccc3)NC(=O)[C@H](C)NC(=O)C(C)(C)NC(=O)[C@H](Cc3cccc(C(=O)O)c3)NC(=O)[C@H](CC(=O)O)NC1=O)NC(=O)[C@H](CC(C)(C)C)NC(=O)[C@H](CC(=O)O)NC2=O (relative stereo) [I-301, Ac-PL3-Asp-Npg-B5-Asp-3COOHF-Aib-Ala-Phe-Lys*3-PyrS2-4PyrA-BztA-GlnR*3-Ala-NH2] | < 50 nM | > 10000 nM |
| CC(=O)N1CCC[C@]12CC=CCCCC1(CCCC=CCCCOC(=O)N3CC[C@@]4(C3)NC(=O)[C@H](CC(C)C)NC(=O)[C@H](Cc3ccccc3)NC(=O)[C@H](C)NC(=O)[C@H](CCC(=O)N3CCC5(CCCN(C5)C(=O)CC[C@@H](C(=O)N[C@@H](C)C(N)=O)NC(=O)[C@H](Cc5csc6ccccc56)NC(=O)[C@H](Cc5ccccc5C(F)(F)F)NC4=O)CC3)NC(=O)[C@H](Cc3cccc(C(=O)O)c3)NC(=O)[C@H](CC(=O)O)NC1=O)NC(=O)[C@H](CC(C)(C)C)NC(=O)[C@H](CC(=O)O)NC2=O (stereo partly drawn) [I-131, Ac-PL3-Asp-Npg-B5-Asp-3COOHF-GlnR-Ala-Phe-Leu-PyrS2-2F3MeF-BztA-[29N2spiroundecane]GlnR-Ala-NH2] | 200 to 750 nM | > 10000 nM |
| CC(=O)N1CCC[C@]12CC=CCCCC13CCCC=CCCCOC(=O)N4CC[C@@]5(C4)NC(=O)[C@H](CCCCNC(=O)CC[C@@H](C(=O)N[C@@H](C)C(N)=O)NC(=O)[C@H](Cc4csc6ccccc46)NC(=O)[C@H](Cc4ccccc4C(F)(F)F)NC5=O)NC(=O)[C@H](Cc4ccccc4)NC(=O)[C@H](C)NC(=O)[C@H](CCCCNC(=O)CC[C@H](NC(=O)[C@H](CC(=O)O)NC2=O)C(=O)N1)NC(=O)[C@H](Cc1cccc(C(=O)O)c1)NC(=O)[C@H](CC(=O)O)NC3=O (relative stereo) [I-75, Ac-PL3-Asp-GlnR**3-B5-Asp-3COOHF-Lys**3-Ala-Phe-Lys*3-PyrS2-2F3MeF-BztA-GlnR*3-Ala-NH2] | < 50 nM | > 10000 nM |
| CC(=O)N1CCC[C@]12CC=CCCCC1(CCCC=CCCCOC(=O)N3CC[C@@]4(C3)NC(=O)[C@H](CC(C)C)NC(=O)[C@H](Cc3ccccc3)NC(=O)[C@H](C)NC(=O)[C@H](CCC(=O)N3CCCC5(CCN(CC5)C(=O)CC[C@@H](C(=O)N[C@@H](C)C(N)=O)NC(=O)[C@H](Cc5csc6ccccc56)NC(=O)[C@H](Cc5ccccc5C(F)(F)F)NC4=O)C3)NC(=O)[C@H](Cc3cccc(C(=O)O)c3)NC(=O)[C@H](CC(=O)O)NC1=O)NC(=O)[C@H](CC(C)(C)C)NC(=O)[C@H](CC(=O)O)NC2=O (stereo partly drawn) [I-132, Ac-PL3-Asp-Npg-B5-Asp-3COOHF-[29N2spiroundecane]GlnR-Ala-Phe-Leu-PyrS2-2F3MeF-BztA-GlnR-Ala-NH2] | 50 to 200 nM | > 10000 nM |
| CC(=O)N1CCC[C@]12CC=CCCCC1(CCCC=CCCCOC(=O)N3CC[C@@]4(C3)NC(=O)[C@H](CCCCNC(=O)CC[C@@H](C(=O)N[C@@H](CCCCNC(=O)CCOCCOCCOCCOCCOCCOCCOCCOCCNC(=O)CCCC[C@@H]3SC[C@@H]5NC(=O)N[C@@H]53)C(N)=O)NC(=O)[C@H](Cc3csc5ccccc35)NC(=O)[C@H](Cc3ccsc3)NC4=O)NC(=O)[C@H](Cc3ccccc3)NC(=O)[C@H](C)NC(=O)C(C)(C)NC(=O)[C@H](Cc3cccc(C(=O)O)c3)NC(=O)[C@H](CC(=O)O)NC1=O)NC(=O)[C@H](CC(C)(C)C)NC(=O)[C@H](CC(=O)O)NC2=O (relative stereo) [I-517, Ac-PL3-Asp-Npg-B5-Asp-3COOHF-Aib-Ala-Phe-Lys*3-PyrS2-3Thi-BztA-GlnR*3-[BiotinPEG8]Lys-NH2] | < 50 nM | > 10000 nM |
| CC(=O)N1CCC[C@]12CC=CCCCC1(CCCC=CCCCOC(=O)N3CC[C@@]4(C3)NC(=O)[C@H](CC(C)C)NC(=O)[C@H](Cc3ccccc3)NC(=O)[C@H](C)NC(=O)[C@H](CCCCNC(=O)C(C)(C)C(=O)NCCCC[C@@H](C(N)=O)NC(=O)[C@H](Cc3csc5ccccc35)NC(=O)[C@H](Cc3ccccc3Cl)NC4=O)NC(=O)[C@H](Cc3cccc(C(=O)O)c3)NC(=O)[C@H](CC(=O)O)NC1=O)NC(=O)[C@H](CC(C)(C)C)NC(=O)[C@H](CC(=O)O)NC2=O (stereo partly drawn) [I-52, Ac-PL3-Asp-Npg-B5-Asp-3COOHF-[Me2Mal]Lys-Ala-Phe-Leu-PyrS2-2ClF-BztA-Lys-NH2] | < 50 nM | > 10000 nM |
| CC(=O)N1CCC[C@]12CC=CCCCC1(CCCC=CCCCOC(=O)N3CC[C@@]4(C3)NC(=O)[C@H](CCCCNC(=O)CC[C@@H](C(=O)N[C@@H](CCCN3CCOCC3)C(=O)NC(CO)CO)NC(=O)[C@H](Cc3csc5ccccc35)NC(=O)[C@H](Cc3ccccc3C(F)(F)F)NC4=O)NC(=O)[C@H](Cc3ccccc3)NC(=O)[C@H](C)NC(=O)C(C)(C)NC(=O)[C@H](Cc3cccc(C(=O)O)c3)NC(=O)[C@H](CC(=O)O)NC1=O)NC(=O)[C@H](CC(C)(C)C)NC(=O)[C@H](CC(=O)O)NC2=O (relative stereo) [I-224, Ac-PL3-Asp-Npg-B5-Asp-3COOHF-Aib-Ala-Phe-Lys*3-PyrS2-2F3MeF-BztA-GlnR*3-MorphNva-Serol] | < 50 nM | > 10000 nM |
